US10149839B2, “Chemical compounds” (AstraZeneca AB, priority 2016, dated 2018)

Amino acid sequences for entries named in this document (tags omitted). Residues count along the entry.
UniProt P03372, 307-554: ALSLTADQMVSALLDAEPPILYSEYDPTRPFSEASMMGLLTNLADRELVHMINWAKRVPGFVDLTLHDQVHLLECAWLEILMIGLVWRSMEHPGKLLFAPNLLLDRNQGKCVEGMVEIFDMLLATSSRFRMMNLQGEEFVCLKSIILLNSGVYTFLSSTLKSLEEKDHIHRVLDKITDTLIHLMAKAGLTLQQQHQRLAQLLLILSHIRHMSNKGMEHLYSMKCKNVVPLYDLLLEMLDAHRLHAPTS

Target: recombinant human Estrogen Receptor alpha ligand binding domain (ER alpha-LBD (GST)) (Homo sapiens (Human), UniProt P03372)
Assay: ERα binding assay (LanthaScreen TR-FRET competition)
Conditions: read-out: ER binding IC50 value, 50% reduction in tracer binding to ER alpha-LBD

**Q.** For `CC(C)CN1[C@H](c2ccc(OCCNCCC(F)F)cc2)c2[nH]c3ccccc3c2C[C@H]1C` [Example 1, 3,3-difluoro-N-(2-(4-((1R,3R)-2-isobutyl-3-methyl-2,3,4,9-tetrahydro-1H-pyrido[3,4-b]indol-1-yl)phenoxy)ethyl)propan-1-amine], which IC50 is on record?
**A.** Its IC50 is 6.6 nM.

**Q.** With `C[C@@H]1Cc2c([nH]c3ccccc23)[C@@H](c2c(F)cc(OCC(CO)NCCCF)cc2F)N1CC(C)(C)F` (stereo partly drawn) [Example 20, 3-(3,5-difluoro-4-((1R,3R)-2-(2-fluoro-2-methylpropyl)-3-methyl-2,3,4,9-tetrahydro-1H-pyrido[3,4-b]indol-1-yl)phenoxy)-2-((3-fluoropropyl)amino)propan-1-ol] as the compound, how does the IC50 read?
**A.** Its IC50 is 1.8 nM.

**Q.** With `C[C@@H]1Cc2c([nH]c3ccccc23)[C@@H](c2cnc(OCCNCCCF)cn2)N1CC(F)F` [Example 70, N-(2-((5-((1S,3R)-2-(2,2-difluoroethyl)-3-methyl-2,3,4,9-tetrahydro-1H-pyrido[3,4-b]indol-1-yl)pyrazin-2-yl)oxy)ethyl)-3-fluoropropan-1-amine] as the compound, how does the IC50 read?
**A.** Its IC50 is 1.2 nM.

**Q.** For `C[C@@H]1Cc2c([nH]c3ccccc23)[C@@H](c2c(F)cc(OCCNCCC(F)F)cc2F)N1CC(C)(C)F` [Example 3, N-(2-(3,5-difluoro-4-((1R,3R)-2-(2-fluoro-2-methylpropyl)-3-methyl-2,3,4,9-tetrahydro-1H-pyrido[3,4-b]indol-1-yl)phenoxy)ethyl)-3,3-difluoropropan-1-amine], which IC50 is on record?
**A.** The IC50 was 1.1 nM.

**Q.** With `C[C@@H]1Cc2c([nH]c3ccccc23)[C@@H](c2c(F)cc(NCCNCCCF)cc2F)N1CC(F)F` [Example 54, N1-(4-((1R,3R)-2-(2,2-difluoroethyl)-3-methyl-2,3,4,9-tetrahydro-1H-pyrido[3,4-b]indol-1-yl)-3,5-difluorophenyl)-N2-(3-fluoropropyl)ethane-1,2-diamine] as the compound, how does the IC50 read?
**A.** The IC50 was 1.6 nM.

**Q.** For `COc1cc(NCCNCCCF)ccc1[C@@H]1c2[nH]c3ccccc3c2C[C@@H](C)N1CC1(F)COC1` [Example 47, N1-(4-((1R,3R)-2-((3-fluorooxetan-3-yl)methyl)-3-methyl-2,3,4,9-tetrahydro-1H-pyrido[3,4-b]indol-1-yl)-3-methoxyphenyl)-N2-(3-fluoropropyl)ethane-1,2-diamine], which IC50 is on record?
**A.** The IC50 was 27 nM.

**Q.** With `C[C@@H]1Cc2c([nH]c3ccccc23)[C@@H](c2ncc(OCCNCCCF)cn2)N1CC(C)(C)F` [Example 39, 3-fluoro-N-(2-((2-((1S,3R)-2-(2-fluoro-2-methylpropyl)-3-methyl-2,3,4,9-tetrahydro-1H-pyrido[3,4-b]indol-1-yl)pyrimidin-5-yl)oxy)ethyl)propan-1-amine] as the compound, how does the IC50 read?
**A.** The IC50 was 11 nM.

**Q.** For `C[C@@H]1Cc2c([nH]c3ccccc23)[C@@H](c2c(F)cc(NCCNCCCF)cc2F)N1CC1(F)CC1` [Example 9, N^1-(3,5-difluoro-4-((1R,3R)-2-((1-fluorocyclopropyl)methyl)-3-methyl-2,3,4,9-tetrahydro-1H-pyrido[3,4-b]indol-1-yl)phenyl)-N^2-(3-fluoropropyl)ethane-1,2-diamine], which IC50 is on record?
**A.** Its IC50 is 4.8 nM.

**Q.** `C[C@@H]1Cc2c([nH]c3ccccc23)[C@@H](c2ccc(OCCNCCCF)nc2)N1CC1(F)CC1` [Example 33, 3-fluoro-N-(2-((5-((1R,3R)-2-((1-fluorocyclopropyl)methyl)-3-methyl-2,3,4,9-tetrahydro-1H-pyrido[3,4-b]indol-1-yl)pyridin-2-yl)oxy)ethyl)propan-1-amine] was tested. Which IC50 did it give?
**A.** Its IC50 is 2.5 nM.

**Q.** For `COc1cc(OCCNCCCF)ncc1[C@@H]1c2[nH]c3ccccc3c2C[C@@H](C)N1CC(F)F` [Example 40, N-(2-((5-((1R,3R)-2-(2,2-difluoroethyl)-3-methyl-2,3,4,9-tetrahydro-1H-pyrido[3,4-b]indol-1-yl)-4-methoxypyridin-2-yl)oxy)ethyl)-3-fluoropropan-1-amine], which IC50 is on record?
**A.** Its IC50 is 1.7 nM.

**Q.** How did the IC50 turn out when `C[C@@H]1Cc2c([nH]c3ccccc23)[C@@H](c2ccc(OCCNCCCF)cc2F)N1CC(C)(F)F` [Example 55, N-(2-(4-((1R,3R)-2-(2,2-difluoropropyl)-3-methyl-2,3,4,9-tetrahydro-1H-pyrido[3,4-b]indol-1-yl)-3-fluorophenoxy)ethyl)-3-fluoropropan-1-amine] was run?
**A.** Its IC50 is 1.6 nM.

**Q.** Which IC50 does the source give for `COc1cc(OCCNCCCF)ncc1[C@@H]1c2[nH]c3ccccc3c2C[C@@H](C)N1CC(F)(F)F` [Example 41, 3-Fluoro-N-(2-((4-methoxy-5-((1R,3R)-3-methyl-2-(2,2,2-trifluoroethyl)-2,3,4,9-tetrahydro-1H-pyrido[3,4-b]indol-1-yl)pyridin-2-yl)oxy)ethyl)propan-1-amine] here?
**A.** The IC50 was 1.5 nM.

**Q.** For `C[C@@H]1Cc2c([nH]c3ccccc23)[C@@H](c2ccc(OCCNCCCF)cc2F)N1CC1(F)CC1` [Example 21, 3-fluoro-N-(2-(3-fluoro-4-((1R,3R)-2-((1-fluorocyclopropyl)methyl)-3-methyl-2,3,4,9-tetrahydro-1H-pyrido[3,4-b]indol-1-yl)phenoxy)ethyl)propan-1-amine], which IC50 is on record?
**A.** The IC50 was 4.8 nM.

**Q.** For `C[C@@H]1Cc2c([nH]c3ccccc23)[C@@H](c2ccc(OCCNCCCF)cn2)N1CC1(F)COC1` [Example 32, 3-fluoro-N-(2-((6-((1S,3R)-2-((3-fluorooxetan-3-yl)methyl)-3-methyl-2,3,4,9-tetrahydro-1H-pyrido[3,4-b]indol-1-yl)pyridin-3-yl)oxy)ethyl)propan-1-amine], which IC50 is on record?
**A.** Its IC50 is 37 nM.

**Q.** For `C[C@@H]1Cc2c([nH]c3ccccc23)[C@@H](c2c(F)cc(OCC(CO)NCCCF)cc2F)N1CC(C)(C)F` (single isomer, unassigned) [Example 53], which IC50 is on record?
**A.** The IC50 was 2.8 nM.

**Q.** How did the IC50 turn out when `COc1nc(NCCNCCCF)ccc1[C@@H]1c2[nH]c3ccccc3c2C[C@@H](C)N1CC(C)(F)F` [Example 78, N1-(5-((1R,3R)-2-(2,2-difluoropropyl)-3-methyl-2,3,4,9-tetrahydro-1H-pyrido[3,4-b]indol-1-yl)-6-methoxypyridin-2-yl)-N2-(3-fluoropropyl)ethane-1,2-diamine] was run?
**A.** The IC50 was 7.6 nM.

**Q.** For `COc1cc(NCCNCCCF)ncc1[C@@H]1c2[nH]c3ccccc3c2C[C@@H](C)N1CC(F)F` [Example 67, N1-(5-((1R,3R)-2-(2,2-difluoroethyl)-3-methyl-2,3,4,9-tetrahydro-1H-pyrido[3,4-b]indol-1-yl)-4-methoxypyridin-2-yl)-N2-(3-fluoropropyl)ethane-1,2-diamine], which IC50 is on record?
**A.** Its IC50 is 2.5 nM.

**Q.** How did the IC50 turn out when `C[C@@H]1Cc2c([nH]c3ccccc23)[C@@H](c2c(F)cc(N(C)CCNCCCF)cc2F)N1CC1(F)CC1` [Example 45, N1-(3,5-difluoro-4-((1R,3R)-2-((1-fluorocyclopropyl)methyl)-3-methyl-2,3,4,9-tetrahydro-1H-pyrido[3,4-b]indol-1-yl)phenyl)-N2-(3-fluoropropyl)-N1-methylethane-1,2-diamine] was run?
**A.** Its IC50 is 4.3 nM.

**Q.** Which IC50 does the source give for `C[C@@H]1Cc2c([nH]c3ccccc23)[C@@H](c2ccc(OCCNCCCF)cc2F)N1CC(F)F` [Example 48, N-(2-(4-((1R,3R)-2-(2,2-difluoroethyl)-3-methyl-2,3,4,9-tetrahydro-1H-pyrido[3,4-b]indol-1-yl)-3-fluorophenoxy)ethyl)-3-fluoropropan-1-amine] here?
**A.** The IC50 was 1.5 nM.

**Q.** For `C[C@@H]1Cc2c([nH]c3ccccc23)[C@@H](c2cnc(NCCNCCCF)cn2)N1CC(F)F` [Example 71, N1-(5-((1S,3R)-2-(2,2-difluoroethyl)-3-methyl-2,3,4,9-tetrahydro-1H-pyrido[3,4-b]indol-1-yl)pyrazin-2-yl)-N2-(3-fluoropropyl)ethane-1,2-diamine], which IC50 is on record?
**A.** The IC50 was 1 nM.

**Q.** With `COc1nc(OCCNCCCF)ccc1[C@@H]1c2[nH]c3ccccc3c2C[C@@H](C)N1CC(C)(F)F` [Example 77, N-(2-((5-((1R,3R)-2-(2,2-difluoropropyl)-3-methyl-2,3,4,9-tetrahydro-1H-pyrido[3,4-b]indol-1-yl)-6-methoxypyridin-2-yl)oxy)ethyl)-3-fluoropropan-1-amine] as the compound, how does the IC50 read?
**A.** Its IC50 is 2.1 nM.

**Q.** For `Cc1cc(OCCNCCCF)ncc1[C@@H]1c2[nH]c3ccccc3c2C[C@@H](C)N1CC(F)F` [Example 63, N-(2-((5-((1R,3R)-2-(2,2-difluoroethyl)-3-methyl-2,3,4,9-tetrahydro-1H-pyrido[3,4-b]indol-1-yl)-4-methylpyridin-2-yl)oxy)ethyl)-3-fluoropropan-1-amine], which IC50 is on record?
**A.** The IC50 was 3.1 nM.

**Q.** `C[C@@H]1Cc2c([nH]c3ccccc23)[C@@H](c2ccc(OCCNCCCF)cn2)N1CC1(F)CC1` [Example 31, 3-fluoro-N-(2-((6-((1S,3R)-2-((1-fluorocyclopropyl)methyl)-3-methyl-2,3,4,9-tetrahydro-1H-pyrido[3,4-b]indol-1-yl)pyridin-3-yl)oxy)ethyl)propan-1-amine] was tested. Which IC50 did it give?
**A.** Its IC50 is 12 nM.

**Q.** `COc1nc(NCCNCCCF)ccc1[C@@H]1c2[nH]c3ccccc3c2C[C@@H](C)N1CC(F)F` [Example 76, N1-(5-((1R,3R)-2-(2,2-difluoroethyl)-3-methyl-2,3,4,9-tetrahydro-1H-pyrido[3,4-b]indol-1-yl)-6-methoxypyridin-2-yl)-N2-(3-fluoropropyl)ethane-1,2-diamine] was tested. Which IC50 did it give?
**A.** Its IC50 is 3 nM.

**Q.** With `COc1cc(NCCNCCCF)ccc1[C@@H]1c2[nH]c3ccccc3c2C[C@@H](C)N1CC1(F)CC1` [Example 60, N1-(4-((1R,3R)-2-((1-fluorocyclopropyl)methyl)-3-methyl-2,3,4,9-tetrahydro-1H-pyrido[3,4-b]indol-1-yl)-3-methoxyphenyl)-N2-(3-fluoropropyl)ethane-1,2-diamine] as the compound, how does the IC50 read?
**A.** Its IC50 is 14 nM.

**Q.** `COc1cc(OCCNCCCF)ccc1[C@@H]1c2[nH]c3ccccc3c2C[C@@H](C)N1CC(F)(F)F` [Example 73, 3-fluoro-N-(2-(3-methoxy-4-((1R,3R)-3-methyl-2-(2,2,2-trifluoroethyl)-2,3,4,9-tetrahydro-1H-pyrido[3,4-b]indol-1-yl)phenoxy)ethyl)propan-1-amine] was tested. Which IC50 did it give?
**A.** Its IC50 is 2.7 nM.

**Q.** With `C[C@@H]1Cc2c([nH]c3ccccc23)[C@@H](c2ccc(OCCNCCCF)cn2)N1CC(C)(C)F` [Example 30, 3-fluoro-N-(2-((6-((1S,3R)-2-(2-fluoro-2-methylpropyl)-3-methyl-2,3,4,9-tetrahydro-1H-pyrido[3,4-b]indol-1-yl)pyridin-3-yl)oxy)ethyl)propan-1-amine] as the compound, how does the IC50 read?
**A.** Its IC50 is 1.3 nM.

**Q.** `COc1cc(NCCNCCCF)ccc1[C@@H]1c2[nH]c3ccccc3c2C[C@@H](C)N1CC(F)F` [Example 61, N1-(4-((1R,3R)-2-(2,2-difluoroethyl)-3-methyl-2,3,4,9-tetrahydro-1H-pyrido[3,4-b]indol-1-yl)-3-methoxyphenyl)-N2-(3-fluoropropyl)ethane-1,2-diamine] was tested. Which IC50 did it give?
**A.** The IC50 was 4.3 nM.
